Test results: US20240158392A1 (Janssen Biotech, Inc., priority 2021, published 2024)

By UniProt entry, the sequences of proteins in these tests, tags left out.
UniProt Q9H0K1, whole entry: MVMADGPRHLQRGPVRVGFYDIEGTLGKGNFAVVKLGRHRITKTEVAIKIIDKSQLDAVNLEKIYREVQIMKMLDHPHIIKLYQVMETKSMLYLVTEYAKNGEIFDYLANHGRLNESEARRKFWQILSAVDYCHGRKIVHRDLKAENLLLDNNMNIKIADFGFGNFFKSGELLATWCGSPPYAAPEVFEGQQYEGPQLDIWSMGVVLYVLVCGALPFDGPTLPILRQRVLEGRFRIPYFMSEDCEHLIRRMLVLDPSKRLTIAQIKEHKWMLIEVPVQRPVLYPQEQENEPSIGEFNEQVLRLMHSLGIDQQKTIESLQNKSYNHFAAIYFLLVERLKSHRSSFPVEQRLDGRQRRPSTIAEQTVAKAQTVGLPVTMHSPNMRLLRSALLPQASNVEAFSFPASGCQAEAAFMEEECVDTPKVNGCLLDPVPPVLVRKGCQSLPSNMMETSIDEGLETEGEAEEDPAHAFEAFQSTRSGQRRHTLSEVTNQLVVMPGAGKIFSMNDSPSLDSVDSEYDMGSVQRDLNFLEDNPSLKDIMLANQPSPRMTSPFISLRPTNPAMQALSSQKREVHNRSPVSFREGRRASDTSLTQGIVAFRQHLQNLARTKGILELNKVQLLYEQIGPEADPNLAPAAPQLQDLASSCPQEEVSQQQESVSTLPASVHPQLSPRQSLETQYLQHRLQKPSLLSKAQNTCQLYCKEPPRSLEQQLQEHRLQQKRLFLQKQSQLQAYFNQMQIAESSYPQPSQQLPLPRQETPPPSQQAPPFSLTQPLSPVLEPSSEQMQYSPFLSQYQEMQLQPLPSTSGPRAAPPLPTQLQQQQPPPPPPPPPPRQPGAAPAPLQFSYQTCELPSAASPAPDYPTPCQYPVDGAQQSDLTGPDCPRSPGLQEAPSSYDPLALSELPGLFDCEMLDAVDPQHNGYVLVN

Target: SIK2 (Homo sapiens, UniProt Q9H0K1)
Assay: SIK2 Enzymatic Assay High Version 2 (High ATP)
Type: biochemical
Settings: read-out: SIK2 high ATP IC50 (μM) (Test Example 2); enzyme 6 nM, 6 mM ATP and 400 μM HDAC5tide (each 2× final concentration); 30 minutes pre-incubation, 2 hours; ADP-Glo Max luminescence

CO[C@H]1CNC[C@H]1COc1cnc(C)cc1-c1ccn2nc(NC(=O)C3CC3)cc2c1 (relative stereo)
IC50: < 0.000847 µM
